For one series, the target named is T1, cat-CHD1L (Homo sapiens, UniProt Q86WJ1).
T1 construct: made in house; host or cells: Rosetta 2 (DE3) pLysS cells (E. coli)
T1 sequence (Q86WJ1 16-619): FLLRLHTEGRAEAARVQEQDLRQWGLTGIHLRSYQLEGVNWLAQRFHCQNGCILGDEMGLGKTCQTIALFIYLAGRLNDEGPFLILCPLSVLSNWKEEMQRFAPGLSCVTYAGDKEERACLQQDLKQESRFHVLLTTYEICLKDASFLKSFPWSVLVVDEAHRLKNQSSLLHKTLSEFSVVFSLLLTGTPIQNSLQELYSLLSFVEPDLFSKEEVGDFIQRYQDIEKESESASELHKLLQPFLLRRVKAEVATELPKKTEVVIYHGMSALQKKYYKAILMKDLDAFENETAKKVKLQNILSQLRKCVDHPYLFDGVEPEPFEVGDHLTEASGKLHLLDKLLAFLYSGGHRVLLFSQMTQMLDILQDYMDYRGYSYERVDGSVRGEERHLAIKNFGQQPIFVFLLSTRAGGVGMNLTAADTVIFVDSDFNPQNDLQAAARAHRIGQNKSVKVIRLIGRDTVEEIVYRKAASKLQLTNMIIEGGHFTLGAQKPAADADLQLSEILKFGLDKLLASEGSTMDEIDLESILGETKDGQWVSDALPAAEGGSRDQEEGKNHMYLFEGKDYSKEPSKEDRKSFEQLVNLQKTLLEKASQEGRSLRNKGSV
The series can be described thus: CHD1L ATPase assay measured by ADP-Glo. It counts as biochemical. (ADP-Glo turns the ADP formed in a reaction into a luminescent signal.)

The target in another series is T2, CHD1L (Homo sapiens, UniProt Q86WJ1).
T2 sequence (Q86WJ1 1-897): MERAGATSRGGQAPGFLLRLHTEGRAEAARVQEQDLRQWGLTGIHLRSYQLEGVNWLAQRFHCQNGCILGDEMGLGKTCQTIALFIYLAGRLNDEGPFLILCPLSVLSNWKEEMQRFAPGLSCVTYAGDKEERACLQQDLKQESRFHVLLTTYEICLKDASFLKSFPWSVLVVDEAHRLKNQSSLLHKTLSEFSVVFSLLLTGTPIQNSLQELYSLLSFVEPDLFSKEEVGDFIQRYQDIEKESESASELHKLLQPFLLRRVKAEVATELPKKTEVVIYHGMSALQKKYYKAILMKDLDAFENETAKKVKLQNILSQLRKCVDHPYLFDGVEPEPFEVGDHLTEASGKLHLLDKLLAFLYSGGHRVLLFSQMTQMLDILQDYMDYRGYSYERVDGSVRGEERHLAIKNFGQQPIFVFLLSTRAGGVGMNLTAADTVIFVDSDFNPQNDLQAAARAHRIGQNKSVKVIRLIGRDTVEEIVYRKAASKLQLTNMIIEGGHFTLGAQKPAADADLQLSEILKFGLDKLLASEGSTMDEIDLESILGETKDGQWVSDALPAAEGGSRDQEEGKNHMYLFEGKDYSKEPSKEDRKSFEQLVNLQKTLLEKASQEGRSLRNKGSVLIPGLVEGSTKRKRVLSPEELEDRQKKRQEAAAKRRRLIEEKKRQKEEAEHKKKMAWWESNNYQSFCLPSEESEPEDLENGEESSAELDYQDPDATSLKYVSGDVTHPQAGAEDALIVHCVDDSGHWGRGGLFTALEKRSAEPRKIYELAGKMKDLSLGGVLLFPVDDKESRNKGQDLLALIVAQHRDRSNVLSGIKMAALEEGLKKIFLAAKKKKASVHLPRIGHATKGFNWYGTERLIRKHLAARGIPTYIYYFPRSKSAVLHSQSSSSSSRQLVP
The experiment in a line: CHD1L trapping (in situ subcellular fractionation, immunofluorescence). The class given is cell-based. The note with it: single agent; for CHD1L trapping relative to the baseline (doxorubicin control): 24 hours (Example 13). The text has this: Other studies on the role of CHD1L used cell lines with knockdown or knockouts of the gene encoding for CHD1L and have never been able to study the result of its enzymatic inhibition.

Another series addresses cat-CHD1L-K272A (Homo sapiens, UniProt Q86WJ1, K272A). Particulars: Lys-to-Ala (K272A) mutation, ATPase function preserved.
The nature of a further series: Pharmacokinetics in mice. The note with it: mouse, in vivo, po.

What is called half-life is how long it takes for the measured level to halve. Lower therefore signals fast loss. Consider `Cc1cc(Nc2ccc(NC(=O)Cc3cc(Br)cs3)cc2)nc(N2CCCC2)n1` [Compound 6.11, 2-(4-bromothiophen-2-yl)-N-(4-((6-methyl-2-(pyrrolidin-1-yl)pyrimidin-4-yl)amino)phenyl)acetamide], for which the “inhibition of CHD1L ATPase activity” value on cat-CHD1L is “potent nM dose-dependent inhibition”. Further, on CHD1L, the “CHD1L trapping relative to the baseline (doxorubicin control)” value is on record as “about 3 fold”. Moreover, the “CHD1L trapping onto chromatin/nucleosomes” value at CHD1L (SUM149PT + 0.01% MMS 4 h, BC and CRC cells) is on record as “dose-dependent increase in CHD1L trapping”. Also, the “inhibitory activity on K272A mutant” value against cat-CHD1L-K272A was “abolishes Compound 6.11's inhibitory activity”. In “Pharmacokinetics in mice”, this compound gave a half-life of 8 h.
In the case of `Cc1cc(Nc2ccc(NC(=O)Cc3c[nH]c4cc(Cl)ccc34)cc2)nc(N2CCCC2)n1` [Compound 7, 2-(6-chloro-1H-indol-3-yl)-N-(4-((6-methyl-2-(pyrrolidin-1-yl)pyrimidin-4-yl)amino)phenyl)acetamide], on CHD1L, the “CHD1L trapping relative to the baseline (doxorubicin control)” value is on record as “about 5 fold”.

The values are drawn from patent US20260240844A1, “INHIBITORS OF CHD1L AND USES THEREOF” (The Regents of the University of Colorado, a body corporate, priority 2023, published 2026).
